Results: patent US12655461B2 (priority 2020, dated 2026)

Tested on: E. coli BW25113-Wt cells containing pCyn-v2-GFP
Experiment: Azide biosensor cells (pCyn-v2-GFP) incubated with glucosyl azides, GFP fluorescence of cell lysate
Settings: 4 hours incubation, after the first hour

[N-]=[N+]=N[C@@H]1[C@@H](O)[C@H](O)[C@@H](CO)O[C@H]1N=[N+]=[N-]
change in GFP fluorescence after incubation with glucosyl azide: No change in fluorescence

[N-]=[N+]=NC1(N=[N+]=[N-])O[C@H](CO)[C@@H](O)[C@H](O)[C@H]1O (some centres unmarked)
change in GFP fluorescence after incubation with glucosyl azide: rapid increase in fluorescence
